The target of this assay is 5-HT2C receptor (Homo sapiens, UniProt P28335). Kind of assay: Inverse agonist reduction of basal 5-HT2C-mediated IP production. Type of assay: cell-based.

By UniProt entry, the sequences of proteins in these tests, tags left out. Residues count along the entry.
UniProt P28335, 33-458: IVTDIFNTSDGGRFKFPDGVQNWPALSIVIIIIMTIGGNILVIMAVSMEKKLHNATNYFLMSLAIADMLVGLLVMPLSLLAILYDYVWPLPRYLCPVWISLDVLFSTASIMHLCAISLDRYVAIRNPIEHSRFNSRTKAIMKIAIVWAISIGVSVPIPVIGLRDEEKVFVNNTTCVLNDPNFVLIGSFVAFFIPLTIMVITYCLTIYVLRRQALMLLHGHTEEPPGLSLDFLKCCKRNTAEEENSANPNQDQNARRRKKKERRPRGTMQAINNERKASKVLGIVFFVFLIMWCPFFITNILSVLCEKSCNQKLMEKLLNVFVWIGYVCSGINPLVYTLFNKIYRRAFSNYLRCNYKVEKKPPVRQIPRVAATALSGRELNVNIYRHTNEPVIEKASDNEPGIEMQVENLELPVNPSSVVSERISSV

In general, IC50 refers to the midpoint of a concentration-inhibition curve. Low values mean greater potency in that assay, high ones weaker potency in that assay.

As for `CN1C[C@@H](NS(=O)(=O)N(C)C)C[C@@H]2c3cccc4c3c(cn4C)C[C@H]21` [mesulergine], the IC50 was 24 nM.

In the case of `Cn1ccc2cc3c(cc21)CCN3C(=O)Nc1cccnc1` [SB 206553], where the note is “CHO-K1 cells, basal 5-HT2C-mediated IP production after 20 h of vehicle, n = 3”, the “pIC50, inositol phosphate reduction” value turned out to be 7.77 ± 0.02.

For the origin of these results see PMC6767919 (European journal of pharmacology, 2019).
